Experiment: Study 101: plasma epinephrine pharmacokinetics
Assay type: in vivo, human
Design: unit not given beside the values
Settings: 0.5 mg IM
Experimental: Each patient was provided each treatment of the trial with 72-hour washout periods between each treatment, beginning with a 3.5 mg intranasal dose, followed by a 0.3 mg intramuscular dose, followed by a 0.5 mg intramuscular dose, and concluding with a 5.5 mg intranasal dose, with a safety follow-up performed 3 to 5 days after the final dose was administered. The primary endpoints of the study were pharmacokinetic measurements and assessments of comparative bioavailability, while the secondary endpoints were safety concerns and pharmacodynamic assessments.

CNC[C@H](O)c1ccc(O)c(O)c1 [Epinephrine, epinephrine]
Cmax (GeoMean): 382.3

From patent US20260108479A1 (Belhaven BioPharma Inc., priority 2024, published 2026)
